Measurements from article PMC10253817, “Design, Pharmacological Characterization, and Molecular Docking of Minimalist Peptidomimetic Antagonists of α4β1 Integrin” (International Journal of Molecular Sciences, 2023).

Protein sequences, listed by entry. Tags and fused reporters are not part of them. Residues count along the entry.
UniProt P13612, 34-1032, chain 1 of 2: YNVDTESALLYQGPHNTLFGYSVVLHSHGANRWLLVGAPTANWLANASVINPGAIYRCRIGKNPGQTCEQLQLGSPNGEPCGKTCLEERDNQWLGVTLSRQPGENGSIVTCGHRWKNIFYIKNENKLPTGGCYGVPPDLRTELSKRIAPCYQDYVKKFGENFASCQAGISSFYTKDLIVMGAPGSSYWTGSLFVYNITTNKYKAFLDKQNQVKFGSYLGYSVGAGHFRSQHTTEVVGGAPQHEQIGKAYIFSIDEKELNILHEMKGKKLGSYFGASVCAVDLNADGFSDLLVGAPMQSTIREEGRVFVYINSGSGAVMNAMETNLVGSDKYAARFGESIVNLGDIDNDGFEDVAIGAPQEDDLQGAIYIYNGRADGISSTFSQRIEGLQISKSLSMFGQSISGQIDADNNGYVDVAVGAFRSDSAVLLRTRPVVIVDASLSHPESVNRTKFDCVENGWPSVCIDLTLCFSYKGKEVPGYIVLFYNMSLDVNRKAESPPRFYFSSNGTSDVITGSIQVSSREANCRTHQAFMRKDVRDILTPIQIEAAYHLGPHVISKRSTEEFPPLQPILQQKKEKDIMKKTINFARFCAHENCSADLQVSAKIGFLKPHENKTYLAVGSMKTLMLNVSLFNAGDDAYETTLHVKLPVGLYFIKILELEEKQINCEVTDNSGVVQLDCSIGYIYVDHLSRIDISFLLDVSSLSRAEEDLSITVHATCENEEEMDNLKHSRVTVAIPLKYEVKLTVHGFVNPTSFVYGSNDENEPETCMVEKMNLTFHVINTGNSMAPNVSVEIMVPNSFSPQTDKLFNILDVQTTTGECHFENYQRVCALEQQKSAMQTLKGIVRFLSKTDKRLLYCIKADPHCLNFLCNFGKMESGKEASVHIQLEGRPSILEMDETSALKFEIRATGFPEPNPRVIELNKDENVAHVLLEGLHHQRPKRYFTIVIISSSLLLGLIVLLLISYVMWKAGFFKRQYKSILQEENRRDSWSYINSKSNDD

Target: α4β1 integrin (human (endogenous in Jurkat E6.1)) (UniProt P13612)
Experiment: competitive binding of a fluorescent ligand on intact cells (plate reader); intact Jurkat E6.1 cells (50,000 cells/sample) in 0.1% BSA in HEPES buffer (NaCl 110 mM; KCl 10 mM; glucose 10 mM; MgCl2 1 mM; CaCl2 1.5 mM; HEPES 30 mM; pH 7.4); pre-incubated with competitor 10^-11-10^-5 M for 20-30 min at RT, then LDV-FITC (5 uM) for 30 min at RT; one-site competition fit, Ki from IC50 by the Cheng-Prusoff equation

With BIO1211 (peptide) the Ki was 6.9 nM.
